Results published in patent publication US11485745B2, “Amido spirocyclic amide and sulfonamide derivatives” (Valo Health, Inc., priority 2012, dated 2022).

By UniProt entry, the sequences of proteins in these tests, tags left out. Where a name states a change or a piece, a line headed by the entry shows the natural chain unless it says otherwise.
UniProt P43490: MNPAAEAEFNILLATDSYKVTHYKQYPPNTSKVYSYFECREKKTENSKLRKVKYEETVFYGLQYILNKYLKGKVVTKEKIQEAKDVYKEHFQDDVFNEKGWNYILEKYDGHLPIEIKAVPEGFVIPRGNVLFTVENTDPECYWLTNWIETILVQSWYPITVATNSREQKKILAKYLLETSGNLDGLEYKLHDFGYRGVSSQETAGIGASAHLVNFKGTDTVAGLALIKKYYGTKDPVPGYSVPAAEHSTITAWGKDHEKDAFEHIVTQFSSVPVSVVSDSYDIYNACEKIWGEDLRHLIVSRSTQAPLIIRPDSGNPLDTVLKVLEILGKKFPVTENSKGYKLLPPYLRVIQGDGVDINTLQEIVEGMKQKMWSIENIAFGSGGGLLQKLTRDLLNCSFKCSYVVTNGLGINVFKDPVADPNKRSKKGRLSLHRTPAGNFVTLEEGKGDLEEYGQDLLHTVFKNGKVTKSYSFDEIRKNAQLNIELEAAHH

Target: Recombinant His-tagged NAMPT (Homo sapiens (Human), UniProt P43490)
Experiment: Biochemical Inhibition Assay (NAMPT enzymatic reaction, NMN quantified by mass spectrometry)
Conditions: not given

**Q.** For `CC(C)C(=O)N1CCC2(CC1)CC2CNC(=O)c1cc2cnccc2[nH]1` (stereo not drawn) [Example 12], which IC50 is on record?
**A.** Its IC50 is 417 nM and 398 nM.

**Q.** Which IC50 does the source give for `CCS(=O)(=O)N1CCC2(CC1)CC2CNC(=O)c1cc2cnccc2[nH]1` (stereo not drawn) [Example 14, N-[(8-ethylsulfonyl-8-azasprio[2.5]octan-2-yl)methyl]-1H-pyrrolo[3,2-c]pyridine-2-carboxamide] here?
**A.** Its IC50 is 325 nM and 988 nM.

**Q.** For `CN(C)Cc1ccc(C(=O)N2CCC3(CC2)CC3CNC(=O)c2cc3ccncc3o2)cc1` (stereo not drawn) [Example 71, N-[[6-[4-[(dimethylamino)methyl]benzoyl]-6-azaspiro[2.5]octan-2-yl]methyl]furo[2,3-c]pyridine-2-carboxamide], which IC50 is on record?
**A.** The IC50 was 64.1 nM.

**Q.** `O=C(CCC1CCCCC1)N1CCC2(CC1)CC2CNC(=O)N1Cc2ccncc2C1` (stereo not drawn) [Example 197, N-[[6-(3-cyclohexylpropanoyl)-6-azaspiro[2.5]octan-2-yl]methyl]-1,3-dihydropyrrolo[3,4-c]pyridine-2-carboxamide] was tested. Which IC50 did it give?
**A.** The IC50 was 11.1 nM.

**Q.** How did the IC50 turn out when `O=C(CCc1ccccc1)N1CCC2(CC1)CC2CNC(=O)N1Cc2ccncc2C1` (stereo not drawn) [Example 199, N-[[6-(3-phenylpropanoyl)-6-azaspiro[2.5]octan-2-yl]methyl]-1,3-dihydropyrrolo[3,4-c]pyridine-2-carboxamide] was run?
**A.** The IC50 was 14.4 nM.

**Q.** Which IC50 does the source give for `CC1(C)CC1C(=O)N1CCC2(CC1)CC2CNC(=O)N1Cc2ccncc2C1` (stereo not drawn) [Example 377, N-[[6-(2,2-dimethylcyclopropanecarbonyl)-6-azaspiro[2.5]octan-2-yl]methyl]-1,3-dihydropyrrolo[3,4-c]pyridine-2-carboxamide] here?
**A.** Its IC50 is 14.9 nM.

**Q.** For `CC(C)(C)CS(=O)(=O)N1CCC2(CC1)CC2CNC(=O)c1cc2ccncc2[nH]1` (stereo not drawn) [Example 379, N-[[6-(2,2-dimethylpropylsulfonyl)-6-azaspiro[2.5]octan-2-yl]methyl]-1H-pyrrolo[3,2-c]pyridine-2-caarboxamide], which IC50 is on record?
**A.** The IC50 was 1470 nM.

**Q.** How did the IC50 turn out when `CC(C)(C)CS(=O)(=O)N1CCC2(CC1)CC2CNC(=O)N1Cc2ccncc2C1` (stereo not drawn) [Example 381, N-[[6-(2,2-dimethylpropylsulfonyl)-6-azaspiro[2.5]octan-2-yl]methyl]-1,3-dihydropyrrolo[3,4-c]pyridine-2-carboxamide] was run?
**A.** The IC50 was 23.3 nM.

Test system: A2780 cells
Experiment: In-Vitro Cell Proliferation Assay (A2780, sulforhodamine B, 72 hours)
Format: cell-based
Conditions: Homo sapiens, A2780, 72 h, SRB

**Q.** With `CC(=O)N1CCC2(CC1)CC2CNC(=O)c1cc2cnccc2[nH]1` (stereo not drawn) [Example 16, N-[(8-acetyl-8-azaspiro[2.5]octan2-yl)methyl]-1H-pyrrolo[3,2-c]pyridine-2-carboxamide] as the compound, how does the IC50 read?
**A.** The IC50 was 2000 nM.

“And” between values parts separate entries of the source, which are not always exact repeats. Equal entries are not always repeated.
